{
  "source": "patent US20030166645A1",
  "about": "“Novel nitrofuran-containing heterocyclic compounds and uses thereof” (priority 2001, published 2003)",
  "test_system": "Bacteroides thetaiotaomicron",
  "format": "cell-based",
  "data": [
    {"compound": "CCC[C@@H]1C[C@@H](C(=O)N[C@@H]([C@H]2O[C@H](SC)[C@H](O)[C@@H](O)[C@H]2O)[C@H](C)Cl)N(C)C1", "note": "[Clindamycin]", "values": [
      {"measurement": "MIC Bacteroides thetaiotaomicron", "value": 0.25, "unit": "µg/mL"}
    ]}
  ]
}
